# Experimental data published in PubChem BioAssay AID678 (Vanderbilt High Throughput Screening Facility, 2007).
# This is a selection; strong and weak results do not stand in their true shares. Some results for these compounds are left out of this collection, so the calls shown say nothing about other tests. Active and inactive are the calls of the source.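 The calls were made as follows: active = fluorescence response below the plate's average for near-maximal glutamate wells, less 3 SD of those wells; inactive = the rest.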
# Molecular target: Metabotropic glutamate receptor 4 (Homo sapiens) (UniProt Q14833)
# Assay: mGluR4 calcium signal in M1 antagonist follow-up – cell-based, antagonist mode, secondary assay 1, M1 allosteric modulator project (AID 678);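 also: raw unnormalized fluorescence span taken in the window right after glutamate addition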
# Conditions: CHO-mGluR4 calcium flux, Fluo-4 fluorescence, glutamate EC80; at 10 µM; hits give low values
row,Structure (SMILES),fluorescence response (max-min)
1,O=C(OC1CN2CCC1CC2)C(CO)(c1ccccc1)c1ccccc1 (stereo unspecified),inactive: 204
